{
  "sequences": {"note": "By UniProt entry, the sequences of proteins in these tests, tags left out. Residues count along the entry.", "UniProt P10636, 186-279 isoform 2 limits assumed": "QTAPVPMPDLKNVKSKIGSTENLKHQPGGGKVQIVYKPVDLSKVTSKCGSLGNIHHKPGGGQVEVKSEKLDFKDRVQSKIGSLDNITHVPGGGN", "UniProt P05067, 672-713 limits assumed": "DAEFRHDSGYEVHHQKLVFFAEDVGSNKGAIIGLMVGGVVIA", "UniProt P56817, 46-501 limits assumed": "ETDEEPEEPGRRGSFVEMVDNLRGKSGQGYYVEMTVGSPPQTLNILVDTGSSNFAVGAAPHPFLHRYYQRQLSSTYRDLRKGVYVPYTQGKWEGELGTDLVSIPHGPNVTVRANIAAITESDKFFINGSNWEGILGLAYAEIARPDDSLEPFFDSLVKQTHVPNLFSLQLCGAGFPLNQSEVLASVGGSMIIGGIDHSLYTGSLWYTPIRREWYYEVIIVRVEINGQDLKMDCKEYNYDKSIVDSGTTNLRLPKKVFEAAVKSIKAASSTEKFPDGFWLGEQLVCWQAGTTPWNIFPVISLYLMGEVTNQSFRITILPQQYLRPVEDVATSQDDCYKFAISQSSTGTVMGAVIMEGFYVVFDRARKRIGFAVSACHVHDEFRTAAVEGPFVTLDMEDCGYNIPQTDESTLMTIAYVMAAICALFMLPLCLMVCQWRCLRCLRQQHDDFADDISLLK"},
  "source": "patent US9399635B2",
  "about": "“Pyrazole derivative” (GREEN TECH CO., LTD., priority 2011, dated 2016)",
  "assay_type_in_all_cases": "biochemical",
  "key": {"[1]": {"biological_target": "recombinant three-repeat microtubule-binding domain (3R-MBD) of tau protein (Homo sapiens, UniProt P10636)", "experiment": "Determination of tau aggregation inhibitory activity (heparin-induced, thioflavin T fluorescence; electron microscope)", "settings": "read-out: IC50 (μM) Test example 1 (tau aggregation inhibitory activity), 3R-MBD tau 10 μM, heparin 10 μM, 37° C. for 16 hours"}, "Aβ 1-42": {"biological_target": "Aβ 1-42 (Homo sapiens, UniProt P05067)", "experiment": "Determination of Aβ aggregation inhibitory activity (thioflavin T fluorescence)", "settings": "read-out: IC50 (μM) Test example 3 (Aβ aggregation inhibitory activity), Aβ 1-42, 37° C. for 24 hours"}, "[2]": {"biological_target": "recombinant human β-secretase (Homo sapiens, UniProt P56817)", "experiment": "Determination of β-secretase inhibitory activity (BACE-1 FRET assay Kit)", "settings": "read-out: IC50 (μM) Test example 2 (β-secretase inhibitory activity), fluorescent substrate peptide, 1 hour"}},
  "data": [
    {"smiles": "COc1cc(OCc2ccccn2)ccc1/C=C/c1cc(/C=C/c2cc([N+](=O)[O-])c3cc[nH]c3c2)[nH]n1", "values": [
      {"measurement": "IC50", "setting": "[1]", "value": 1.1, "unit": "µM"},
      {"measurement": "IC50", "setting": "Aβ 1-42", "value": 0.58, "unit": "µM"},
      {"measurement": "IC50", "setting": "[2]", "value": 0.85, "unit": "µM"}
    ]}
  ]
}
